Laboratory results as given in ChEMBL document CHEMBL1124123, “Graphics computer-aided receptor mapping as a predictive tool for drug design: development of potent, selective, and stereospecific ligands for the 5-HT1A receptor” (J Med Chem, 1988).

Chains of the proteins cited; added tags and fusions are not shown.
UniProt P28564, whole entry: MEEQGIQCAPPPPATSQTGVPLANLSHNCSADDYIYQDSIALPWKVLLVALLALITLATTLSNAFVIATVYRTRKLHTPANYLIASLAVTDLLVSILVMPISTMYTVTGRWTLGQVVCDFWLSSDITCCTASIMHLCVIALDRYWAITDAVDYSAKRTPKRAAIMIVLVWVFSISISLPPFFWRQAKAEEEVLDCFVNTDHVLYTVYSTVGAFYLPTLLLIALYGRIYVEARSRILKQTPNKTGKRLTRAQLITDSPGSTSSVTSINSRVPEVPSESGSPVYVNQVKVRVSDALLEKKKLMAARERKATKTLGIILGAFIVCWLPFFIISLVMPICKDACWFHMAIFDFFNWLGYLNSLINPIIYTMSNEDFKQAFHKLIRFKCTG

Target: 5-hydroxytryptamine receptor 1B (Rattus norvegicus, UniProt P28564)
Assay: Binding affinity against 5-HT1B receptor in rat frontal cortex using [3H]-5-HT in presence of 0.1 uM […]
Assay type: tissue-based

## CCCN(CCC)C1CCc2cccc(O)c2C1 (stereo unspecified) [8-OH-DPAT]
  IC50: 3.8 µM
